These results are taken from US20170202973A1 (GENENTECH, INC., priority 2009, published 2017).

Test [1] concerns brain metastases from HER2 overexpressing breast cancer. As to conditions: HER2-positive disease, treated with trastuzumab after the diagnosis of brain metastasis; cited from earlier work.
Test [2] has as its system HER2-positive metastatic breast cancer. As to conditions: INV, all treated patients, initial analysis.

For “Trastuzumab: recombinant DNA-derived, IgG1 kappa, humanized monoclonal anti-HER2 antibody (CAS 180288-69-1)”, the median survival in test [1] is on record as 11.9 months. With trastuzumab-MCC-DM1 [T-DM1], the “PFS (months) median” value in test [2] stood at 5.5 months.
